Target: CYP2C9 (Homo sapiens, UniProt P11712)
Test: In vitro P450 inhibitory activity (CYP2C9, tolbutamide 4-hydroxylation), human liver microsomes

Protein sequences, listed by entry. Tags and fused reporters are not part of them.
UniProt P11712, whole entry: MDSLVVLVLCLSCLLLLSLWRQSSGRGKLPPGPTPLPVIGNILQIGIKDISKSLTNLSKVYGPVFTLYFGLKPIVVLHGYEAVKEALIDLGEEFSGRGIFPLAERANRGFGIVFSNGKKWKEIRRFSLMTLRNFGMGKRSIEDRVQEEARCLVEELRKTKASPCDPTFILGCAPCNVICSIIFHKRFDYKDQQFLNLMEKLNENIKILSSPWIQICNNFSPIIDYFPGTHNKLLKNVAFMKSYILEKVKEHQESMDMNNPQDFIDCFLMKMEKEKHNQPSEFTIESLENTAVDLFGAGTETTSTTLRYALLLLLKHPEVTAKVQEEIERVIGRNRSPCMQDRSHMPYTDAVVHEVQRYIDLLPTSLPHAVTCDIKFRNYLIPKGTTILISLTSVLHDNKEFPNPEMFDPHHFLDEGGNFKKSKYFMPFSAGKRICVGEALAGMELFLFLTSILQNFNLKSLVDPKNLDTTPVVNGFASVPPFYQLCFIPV

Q: With `OC(Cn1cncn1)(Cn1cncn1)c1ccc(F)cc1F` [Fluconazole, reference compound] as the compound, how does the IC50 read?
A: > 50 µM
